{"source": "paper PMC5413848", "about": "“Optimization of intestinal microsomal preparation in the rat: A systematic approach to assess the influence of various methodologies on metabolic activity and scaling factors” (Biopharmaceutics & Drug Disposition, 2017)", "note": "Like-named read-outs stand apart in the source and are kept apart here.", "data": [{"substance": "4‐nitrophenol glucuronide [4‐NP Glucuronide]", "values": [{"measurement": "Mean 4-NP glucuronide formation", "setting": "pool 1 following one FT cycle", "result": 70.4, "unit": "nmol/min/min"}, {"measurement": "Mean 4-NP glucuronide formation", "setting": "pool 2 following one FT cycle", "result": 71.4, "unit": "nmol/min/min"}]}]}
